Source: PubChem BioAssay (several laboratories)
MC4R antagonist: human MC4R antagonism in cAMP assay | inhibition, % at 6.5 µM | MC4R-expressing cells, MTII-stimulated cAMP, LANCE TR-FRET | P32245 | hit rate 0.48% among 360,000;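 active = inhibition above its plate's cutoff, the mean of tested wells on that plate plus 3 SD, cut at about 29% in these data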
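Test system: U2OS cells stably expressing human melanocortin 4 receptor (MC4R); also added: Melanotan II challenge; compound: 6.5 µM single dose; timing: 30-min compound preincubation, 1-h Melanotan II challenge, 1-h detection, room temperature; signal: Eu-cAMP/anti-cAMP TR-FRET, emission 671 nm; repeats: one well per compound, no replicates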
Yeast UUG start: yeast start codon fidelity modulation; activity score, % at 18.7 µM; actives 0.13% (n = 350,000); S. cerevisiae UUG-firefly luciferase reporter, luminescence/redox ratio; AID 602363;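 active means replicate mean at a twofold rise or more, about +100% in these data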;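 further: firefly luciferase made from a UUG start codon reports start codon fidelity; reporter light over untreated wells divided by growth signal over untreated wells; some hits fall short of that in this replicate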
CendR NRP1 mod: NRP-1/CendR interaction modulation; hit rate 0.85% among 360,000; FAM-RPARPAR peptide binding to NRP-1, fluorescence polarization; inhibition, % at 25 µM;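 active = inhibition or corrected inhibition above about 18%, plus a signal ratio from 0.5 to 1.5, limit read from the data, passing the limit was not always enough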
MC4R barr agon: agonists of human melanocortin 4 receptor (MC4R) beta-arrestin. P32245. U2OS MC4R beta-arrestin complementation, luminescence; percent of melanotan II response, DMSO zero. activation, % at 8.9 µM. hit rate 0.98% among 360,000;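 active = activation above a per-plate cutoff, the mean activation of sample wells on that plate plus 3 SD, cut at about 8% in these data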
ARFGAP1 inh: rat ARFGAP1 inhibition; Q62848; Arfgap1-stimulated ARF1 GTP hydrolysis, GDP FP detection; inhibition, % at 16.5 µM; hit rate 0.26% among 360,000;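 active = inhibition above a per-plate limit, mean inhibition of low control wells plus 3 SD, cut at about 25% in these data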
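Material: truncated rat Arfgap1 GAP domain; Incubation: compound-enzyme preincubation 20 min, reaction 120 min, detection 60 min, 25 °C; Read-out: percent inhibition of Arfgap1-stimulated GTP hydrolysis; Technique: FP, GDP Alexa 633 tracer displaced from anti-GDP antibody, 620/688 nm; Controls: No-Arfgap1 wells (100%) versus DMSO full-reaction wells (0%); Replication: single well per compound.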
ASAP1 GAP inh: ASAP1 ArfGAP inhibition; Q9ULH1; ASAP1-stimulated ARF1 GTP hydrolysis, GDP FP detection; inhibition, % at 16.5 µM; hit rate 0.19% among 360,000; AID 624377; in the data active = inhibition above about 25%
Numbers stand for hits. This is a sample that favours compounds with a hit; in the whole collection about 2.3% have one here.

CS(=O)(=O)Nc1ccc(C(=O)CC(=O)Nc2ccc([N+](=O)[O-])cc2)cc1 was read as MC4R antagonist inactive, Yeast UUG start inactive, CendR NRP1 mod inactive, MC4R barr agon inactive, ARFGAP1 inh inactive and ASAP1 GAP inh inactive.
Screening O=C(C[C@@H]1C=C[C@@H](NS(=O)(=O)c2ccc(F)cc2)[C@@H](CO)O1)NCc1ccncn1 returned Yeast UUG start inactive.
`CCOC(=O)Cn1c(=O)n(Cc2ccco2)c(=O)c2ccc(C(=O)NC3CCCC3)cc21` gave MC4R antagonist inactive, Yeast UUG start inactive, CendR NRP1 mod 33, MC4R barr agon inactive, ARFGAP1 inh inactive and ASAP1 GAP inh inactive.
CCC(=O)Nc1ccc2c(c1)OC[C@H](C)N(Cc1cccnc1)C[C@H](C)[C@H](OC)CN(C)C2=O was read as Yeast UUG start inactive.
Screening COC(=O)C(C(=O)OC)c1ccccc1[N+](=O)[O-] returned MC4R antagonist inactive, Yeast UUG start inactive, CendR NRP1 mod 31, MC4R barr agon inactive, ARFGAP1 inh inactive and ASAP1 GAP inh inactive.
For Cc1ccc(OCC(=O)NC(=S)Nc2ccccn2)c(Br)c1 the results were MC4R antagonist inactive, Yeast UUG start inactive, CendR NRP1 mod inactive, MC4R barr agon 8.6, ARFGAP1 inh inactive and ASAP1 GAP inh inactive.
Cc1c(C(=O)N(C)Cc2ccccc2)oc2ccc(S(=O)(=O)N3CCCC3)cc12 was read as MC4R antagonist inactive, Yeast UUG start inactive, CendR NRP1 mod 25, MC4R barr agon inactive, ARFGAP1 inh inactive and ASAP1 GAP inh inactive.
For CO[C@H]1CN(C)C(=O)c2ccc(NC(C)=O)cc2OC[C@H](C)N(S(=O)(=O)c2cn(C)cn2)C[C@H]1C the results were Yeast UUG start inactive.
Screening O=c1c2ccccc2sc2ccccc12 returned MC4R antagonist inactive, Yeast UUG start inactive, CendR NRP1 mod inactive, MC4R barr agon inactive, ARFGAP1 inh inactive and ASAP1 GAP inh inactive.
For c1ccc2c(c1)[nH]c1c3ccccc3sc21 the results were MC4R antagonist inactive, Yeast UUG start inactive, CendR NRP1 mod inactive, MC4R barr agon 8.3, ARFGAP1 inh inactive and ASAP1 GAP inh inactive.
`C[C@@H]1CN([C@H](C)CO)C(=O)c2cc(C#CC(C)(C)O)cnc2O[C@H]1CN(C)C(=O)C1CCOCC1` gave Yeast UUG start inactive.
`Cc1ccc(-n2sc3cc(F)ccc3c2=O)c(C)c1` gave MC4R antagonist inactive, Yeast UUG start inactive, CendR NRP1 mod inactive, MC4R barr agon 8.8, ARFGAP1 inh inactive and ASAP1 GAP inh inactive.
Screening COc1ccc(NC(=O)N(C)C[C@H]2Oc3ccc(NC(=O)Nc4ccc(C(F)(F)F)cc4)cc3CC(=O)N([C@H](C)CO)C[C@H]2C)cc1 returned Yeast UUG start inactive.
CCOC(=O)Nc1nc(-c2ccc(F)cc2F)cs1 was read as MC4R antagonist inactive, CendR NRP1 mod inactive, MC4R barr agon inactive, ARFGAP1 inh inactive and ASAP1 GAP inh inactive.
COC(=O)Nc1nc(-c2cc(Cl)ccc2Cl)cs1 was read as MC4R antagonist inactive, Yeast UUG start inactive, CendR NRP1 mod inactive, MC4R barr agon 10, ARFGAP1 inh inactive and ASAP1 GAP inh inactive.
`COc1ccc(S(=O)(=O)N[C@H]2C=C[C@@H](CC(=O)N3CCN(c4ccccc4)CC3)O[C@@H]2CO)cc1` gave Yeast UUG start inactive.
For CCOc1ccc(C(=O)NCC(=O)NCCSc2ccc(Br)cc2)cc1OCC the results were MC4R antagonist inactive, Yeast UUG start inactive, CendR NRP1 mod 23, MC4R barr agon inactive, ARFGAP1 inh inactive and ASAP1 GAP inh inactive.
Screening Cc1noc(C)c1S(=O)(=O)N(C)C[C@H]1Oc2ccc(NC(=O)CCC(F)(F)F)cc2CC(=O)N([C@H](C)CO)C[C@@H]1C returned Yeast UUG start inactive.
COc1cc(/C=N/NC(=O)c2ccc(NC(=O)C3CC3)cc2)ccc1OC(C)=O was read as MC4R antagonist inactive, Yeast UUG start inactive, CendR NRP1 mod 27, MC4R barr agon inactive, ARFGAP1 inh inactive and ASAP1 GAP inh inactive.
`COc1cc(/C=N\NC(=O)c2ccc(-c3ccccc3)cc2)cc(OC)c1O` gave MC4R antagonist inactive, Yeast UUG start inactive, CendR NRP1 mod inactive, MC4R barr agon inactive, ARFGAP1 inh inactive and ASAP1 GAP inh inactive.
